According to patent US20220340983A1, “SYSTEMS AND ASSAYS FOR IDENTIFYING PU.1 INHIBITORS” (Massachustts Institute of Technology, priority 2019, published 2022):
One block for each molecule: values may come before it.

Assays:
[1] = system: PU.1 dependent gene expression; assay: RT-qPCR of mRNA levels in BV2 PU.1-Luciferase cells (validation round 3); format: cell-based, mouse; conditions: 2-day treatment
PU.1 = PU.1 (Mus musculus, UniProt P17433); assay: Luciferase assay (luminescence) in BV2 PU.1-Luciferase reporter cells; format: cell-based; conditions: luminescence reduction in BV2 PU.1-Luciferase cells, concentration-response, Hill's equation

IC50 (PU.1): 0.049 µM
SMILES: CN1CC=C(/C=C/c2ccc(-c3nc4ccccc4s3)o2)CC1
mRNA levels Apoe [1]: 1.035 multiples of 1×
mRNA levels IL1β [1]: 0.767 multiples of 1×
mRNA levels Lucif. [1]: 0.291 multiples of 1×
mRNA levels Spi1 [1]: 0.885 multiples of 1×
mRNA levels Trem2 [1]: 0.863 multiples of 1×
mRNA levels Tyrobp [1]: 0.922 multiples of 1×

IC50 (PU.1): 1.2 µM
SMILES: CCOc1ccc(-c2nc(CSCC(=O)NCCc3ccccc3)c(C)o2)cc1
mRNA levels Apoe [1]: 1.036 multiples of 1×
mRNA levels IL1β [1]: 1.097 multiples of 1×
mRNA levels Lucif. [1]: 0.437 multiples of 1×
mRNA levels Spi1 [1]: 1.065 multiples of 1×
mRNA levels Trem2 [1]: 1.024 multiples of 1×
mRNA levels Tyrobp [1]: 0.994 multiples of 1×
